Measurements published in patent US6747164B2, “Use of amine compounds with improved biodegradability as adjuvants for pesticides and fertilizers” (priority 2000, dated 2004).

How the values were obtained:
Elymus repens = experiment: Greenhouse test of glyphosate/adjuvant formulations with Elymus repens; assay type: in vivo; settings: Example 3, Table 6, glyphosate/adjuvant 2:1, 7 weeks after spraying
Brassica napus = experiment: Greenhouse test of glyphosate/adjuvant formulations with Brassica napus; assay type: in vivo; settings: Example 3, Table 7, glyphosate/adjuvant 2:1, 4 weeks after spraying
[1] = Biodegradability, closed bottle test OECD Test 301D; settings: after 28 days
Lolium rigidum = experiment: Greenhouse test of glyphosate/adjuvant formulations with Lolium rigidum; assay type: in vivo; settings: Example 3, Table 8, glyphosate/adjuvant 2:1, 4 weeks after spraying

Substance: Monoester between polyethyleneglycol (4.5 EO)-monococo ether monocarboxymethyl ether and N-methyldiethanolamine
- Effect (Elymus repens; glyphosate 0.15 kg a.e./ha): 37%
- Effect (Elymus repens; glyphosate 0.25 kg a.e./ha): 83%
- Effect (Elymus repens; glyphosate 0.75 kg a.e./ha): 98%
- Effect (Brassica napus; glyphosate 0.15 kg a.e./ha): 55%
- Effect (Brassica napus; glyphosate 0.25 kg a.e./ha): 70%
- Effect (Brassica napus; glyphosate 0.75 kg a.e./ha): 92%
- Biodegradability [1]: 75%
- Effect (Lolium rigidum; glyphosate 0.08 kg a.e./ha): 50%
- Effect (Lolium rigidum; glyphosate 0.15 kg a.e./ha): 77%
- Effect (Lolium rigidum; glyphosate 0.25 kg a.e./ha): 95%

Substance: Diester between polyethyleneglycol (4.5 EO)-monococo ether monocarboxymethyl ether and N-methyldiethanolamine
- Biodegradability [1]: 21%
